Measured affinities in a library of Ab-14 heavy chain variants

Antigen: PDVDLGDISGINAS, a 14-residue peptide of the SARS-CoV-2 spike HR2 region.

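Phage display of a naive human antibody library on the peptide gave the parent. This is the validation round: designs drawn from the data on random variants, tested in the same kind of assay. Group labels follow the data file (Ctrl: baseline library sampled from a position-specific scoring matrix, with some repeated check sequences; Rand: our label for a block that the file lists under HC and that is probably the random mutants of the ten best first-round binders; En: ensemble of fine-tuned language models; GP: Gaussian process model; GPLM: also part of the Gaussian process libraries; HC: hill climbing; Gen: genetic algorithm; Gibbs: Gibbs sampling; a sequence that several methods proposed may carry one label only). AlphaSeq pools MATa yeast showing the antibodies with MATalpha yeast showing the peptide. Mating (16 h, 30 °C) was followed by selection of diploids and sequencing of their barcodes. Scores were corrected for input abundance and mapped to Kd with protein pairs of known affinity run in the same pool. There are six technical replicates.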

The variants keep the light chain, the linker and the frameworks of Ab-14 (scFv order VH, a 15-residue (Gly4Ser)3 linker, VL).
VH: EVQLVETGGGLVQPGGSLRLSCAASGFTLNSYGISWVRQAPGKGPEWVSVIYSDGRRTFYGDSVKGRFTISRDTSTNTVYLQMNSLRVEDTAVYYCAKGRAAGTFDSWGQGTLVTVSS
VL: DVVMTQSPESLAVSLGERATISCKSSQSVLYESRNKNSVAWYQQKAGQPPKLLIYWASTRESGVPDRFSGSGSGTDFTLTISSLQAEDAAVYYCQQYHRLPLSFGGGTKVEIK

The parent's heavy chain CDRs are GFTLNSYGIS, VIYSDGRRTFYGDSVK, GRAAGTFDS; each variant's own CDRs replace them letter for letter.
Scale: log10 of Kd in nM, estimated from mating counts; low values are strong binders.
Averages over replicates are reported, and they cover detected replicates only.
A pair that was not seen in any replicate is written "nd"; this usually means weak binding, but a binder can also be missed.
The list is sorted by this average, lowest first, undetected variants last.
Of ten entries with the parent sequence, four were seen in most replicates (averages 0.34 to 2.37), three in one and three in none, so single entries are noisy.
A sequence measured in both rounds can read differently, since the two assays cover different ranges.
Nonspecific signal, from three strains lacking the peptide, appeared in 1% of pairings of all heavy chain designs, centred on 2.08 (5% of these signals below 0.84); values are not corrected for it.
The authors averaged sequences with at least three values out of six and counted those with two or fewer as poor binders.
Some sequences occur more than once in the pool; their replicates are pooled.

CDR-H1,CDR-H2,CDR-H3,group,"log10 Kd (nM), mean",replicates with signal
GFDLNEYGIS,VIYADGKRTFYADSVK,GQVAGTFDS,En_HC,-1.10,6/6
GFDLNEYGIS,VIYADGSRTAYSDSVK,GNVAGTFDT,En_Gen,-0.92,6/6
GFDLNEYGIS,VIYADGKRTAYIDSVK,GNTAGTFDQ,En_Gen,-0.78,6/6
GFDLNEYGIS,VIYADGMRTAYADSVK,GNVAGTFNL,En_Gen,-0.76,6/6
GFDLNEYGIS,VIYADGMRTAYADDVK,GKNAGTFDI,En_Gen,-0.62,6/6
GFDLDEYGIS,VIYADGRRTFYQDSVK,GNVAGTFDQ,En_HC,-0.62,6/6
GFDLNEYGIS,VIYADGMRTAYADSVK,GEVAGTFVL,En_Gen,-0.52,6/6
GFDLNEYGIS,VIYADGVRTAYADDVK,GQNAGTFDI,En_Gen,-0.45,6/6
GFDLNEYGIS,VIYADGQRTSYADSVK,GQLAGTFDQ,En_HC,-0.45,6/6
GFDLNSYGIS,VIYSDGRRTFYADSVK,GKTAGTFDS,GPLM_Gibbs,-0.43,6/6
GFDLDEYGIS,VIYADGSRTAYADSVK,GEVAGTFDQ,En_Gen,-0.43,6/6
GFDLDEYGIS,VIYADGMRTAYADDVK,GEVAGTFDV,En_Gen,-0.39,6/6
GFDLNEYGIS,VIYADGQRTYYADSVK,GNVAGTFDT,En_Gen,-0.33,6/6
GFDLNEYGIS,VIYADGRRTQYIDSVK,GNEAGTFDA,En_HC,-0.31,6/6
GFDLNEYGIS,VIYADGVRTAYADSVK,GANAGTFDI,En_Gen,-0.27,6/6
GFELNSYGIS,VIYADGRRTFYGDSVK,GKAAGTFDT,GP_Gen,-0.22,6/6
GFDLNEYGIS,VIYADGMRTYYADDVK,GNTAGTFDV,En_Gen,-0.17,6/6
GFDLNEYGIS,VIYADGSRTAYADSVK,GNQAGTFDI,En_Gen,-0.17,6/6
GFDLNDYGIS,VIYADGRRTAYADSVK,GEVAGTFDS,En_HC,-0.12,6/6
GFELMSYGIS,VIYADGRRTFYGDSVK,GRAAGTFDS,GP_Gen,-0.10,6/6
GFTLNSCGIS,VIYSDGRRTFYGDSVK,GRTAGTFDW,Ctrl,-0.09,1/6
GFDIEEYGIS,VIYADGQRTMEASNFK,GKQAGTFNL,En_Gibbs,-0.03,6/6
GFDLNEYGIS,VIYADGKRTFYSDSVK,GTAGGTFDI,En_HC,0.06,6/6
GFELNSYGIS,VIYSDGRRTFYTDDVK,GREAGTFDS,GP_Gibbs,0.09,6/6
GFTLNSYGIS,VIYSDGRRTFYDDSVK,GRIAGTFDS,Ctrl,0.10,6/6
GFDLNEYGIS,VIYADGKRTFYTDSVK,GEFAGTFDV,En_HC,0.19,6/6
GFDLNEYGIS,VIYADGKRTAYIDSVK,GEVAGTFDL,En_Gen,0.21,6/6
KFELNSYGIS,VIYSDGRRTFYADSVK,GRTAGTFDT,GP_Gibbs,0.22,6/6
GFTLNNYGIS,VIYSDGRRTFYADSVK,GQLAGTFDS,GP_HC,0.36,6/6
GFDLNSYGIS,VIYSDGRRTFYHDSVK,GKNAGTFDS,GP_Gen,0.39,6/6
GFELNSYGIS,VIYSDGRRTFYTDSVK,GKQAGTFDS,GP_Gen,0.40,6/6
GFDLNSYGIS,VIYSDGRRTFYSDSVK,GMAAGTFDS,GPLM_HC,0.46,6/6
GFWLNEYGIS,VIYSDGRRTFYGDSVK,GQTAGTFDT,GP_Gibbs,0.47,1/6
GFDLNSYGIS,VIYSDGRRTFYGDNVK,GREAGTFDS,GP_Gen,0.49,6/6
GFSLNDYGIS,VIYSDGRRTFYGDSVK,GRMAGTFDS,GPLM_Gen,0.53,6/6

Further variants, results first:

"log10 Kd (nM), mean",replicates with signal,CDR-H1,CDR-H2,CDR-H3,group
0.61,12/12,GFTLNEYGIS,VIYSDGRRTFYIDSVK,GRAAGTFDS,Ctrl+GPLM_Gen
0.66,5/6,GFDLNEYGIS,VIYADGMRKAYADSVK,GNNAGTFDL,En_Gen
0.80,5/6,GFTLNEYGIS,VIYSDGERTFYCDSVK,GRAAGTFDS,GP_HC
0.89,6/6,GFTLNSYGIS,VIYSDGRRTAYGDSVK,GRVAGTFDS,Ctrl
1.26,1/6,TFTLNEYGIS,VIYSDGRRTFYGDSVK,GRAAGTFDS,Ctrl
1.31,12/12,GFTLNSYGIS,VIYSDGRRTFYADSVK,GTAAGTFDS,Ctrl+GPLM_Gen
1.36,2/6,GFTLNSYGIS,VIYSDGQRTFYIDSVK,GRVAGTFDS,GP_Gen
1.46,3/6,GFMLNSYGIS,VIYSDGRRTFYGDSVR,GRAAGRFDS,Ctrl
1.54,6/6,GFELDEYGIS,VIYADGERTGYVDNVK,GEAGIDFHV,En_Gibbs
1.64,3/6,GETLAQYGIS,VIYSDGRRTFYIDSVK,GRYAGTFDS,Ctrl
1.68,2/6,GFILNSYGIS,VIYSDGRRTFYVDSVK,GQLAGTFDS,GP_HC
1.70,1/6,GFSLDEYGIS,VIYADGQRKFYTEDVK,GDYNNKKGT,En_Gibbs
1.79,4/6,GFALNMYGIS,VIYSDGRRTFYGDSVK,GRAAGTFDS,Ctrl
2.13,2/6,GFTLESYGIS,VIYSDGRRTFYQDKVK,GQAAGTFDS,GP_Gibbs
2.55,4/6,GFTLNSYGIS,VIYSDGRRTMYADKVK,GRAAGTFDS,Ctrl
2.72,1/6,GFDLNDYGIS,VIYADGRRTQYIDSVK,GNQAGTFDV,En_HC
nd,0/6,GFTLNSYGIT,VIYADGRRTFYGDSVK,GRAWGTNKE,Rand
nd,0/6,GFTLRSYGIS,VIYSDGRRNFYSDSVK,GRAGGTFCS,Rand
nd,0/6,GFTLNSYGIS,VIYSDGRRCFYGDSVK,GFAAGLFDW,Ctrl
nd,0/6,GFSLDEYGIS,VIYADGVRTQYHPKVK,GLQGFIFDL,En_Gibbs
nd,0/6,GFTLNSYGIS,VIYSDGRRTFYQDSVK,GRAKGTFDS,Ctrl
nd,0/6,GFNLNSYGIS,VIYSDGRRTFYGDSVK,GRAAGEFDS,Ctrl
nd,0/6,GFEIEEYGIS,VIYADGQRSSYVDDVK,GKVDTVVMY,En_Gibbs
nd,0/6,KFTLDSYGIS,VIYSDGRRTFYGDDVK,GRAALTFNS,Ctrl
nd,0/6,MFTLESYGIS,VIYADGRRTFYGDSVK,GRAAGTFKS,GP_HC
nd,0/6,GFNLNEYGIS,VIYADGRRTFYADSVK,GQTAGTFIV,En_HC
nd,0/6,GNTLNSYGIS,VIYSDGRRTFYGDSVK,GRLAGTFPS,Ctrl
nd,0/6,GFDLQELGIS,VIYADGTRQAYSEKVK,GQLAGFLVD,En_Gibbs
nd,0/6,GFDLNEYGIS,VIYADGVRTFYADSVK,GEAAGTFDQ,En_HC
nd,0/6,GQDLNEYGIS,VIYADGLRTAYSNNFK,GVNAGFDQY,En_Gibbs
nd,0/6,GFTLNSYGIS,VIYSDGERTFYCDSVK,GEAAGTFDS,GP_HC
nd,0/6,GFTLNSYGIS,VICSDGRRTQYGDQVK,GRSAGTFDS,Ctrl
nd,0/6,GFTLNSYGIS,VIYSDGRRTFYGDSVS,GRAADMKDS,Ctrl
nd,0/6,GFNLEEYGIS,VIYADGMRTNYADKVK,GGLDVQEGY,En_Gibbs
nd,0/6,GFTLESYGIS,VIYSDGKRTFYGDNVK,GRAQGTFDS,Ctrl

Top 5 of the variants detected in all replicates, tightest first:

| CDR-H1 | CDR-H2 | CDR-H3 | group | log10 Kd (nM), mean | replicates with signal |
|---|---|---|---|---|---|
| GFDLNEYGIS | VIYADGKRTFYADSVK | GQVAGTFDS | En_HC | -1.10 | 6/6 |
| GFDLNEYGIS | VIYADGSRTAYSDSVK | GNVAGTFDT | En_Gen | -0.92 | 6/6 |
| GFDLNEYGIS | VIYADGKRTAYIDSVK | GNTAGTFDQ | En_Gen | -0.78 | 6/6 |
| GFDLNEYGIS | VIYADGMRTAYADSVK | GNVAGTFNL | En_Gen | -0.76 | 6/6 |
| GFDLNEYGIS | VIYADGMRTAYADDVK | GKNAGTFDI | En_Gen | -0.62 | 6/6 |

Reference: Li et al. 2023, doi:10.1038/s41467-023-39022-2. File: FLAb, binding data.